In patent US20260159561A1, “C-terminal CDNF and MANF fragments, pharmaceutical compositions comprising same and uses thereof” (MyNeuroCure Oy, priority 2017, published 2026):

Assay: Blood-brain barrier penetration study in rats
Details: subcutaneous injection, brain dissected 2 hours later

CDNF: cerebral dopamine neurotrophic factor; mature human CDNF, SEQ ID NO: 7, 161 amino acids
blood-brain-barrier penetration (radioactivity in brain): in contrast to full-length CDNF the fragment is capable of penetrating
